In patent US4335244A, “Monolactate salts of 4'-(9-acridinylamino)methanesulfon-m-anisidide” (Bristol-Myers Company, priority 1980, dated 1982):

COc1cc(NS(C)(=O)=O)ccc1Nc1c2ccccc2nc2ccccc12 [sulfate, reference compound]
Water-solubility (in words): only slightly soluble in water
